# Cyclic peptide permeability, from CycPeptMPDB

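Lipid, pH, incubation time, direction and concentration are not recorded in the data file. The list need not hold all peptides of the study. Peptides that the database sets to -10, its floor, are left out.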

PAMPA measures passive passage through an artificial lipid membrane. Permeability is given as log10 of P in cm/s; higher (less negative) is more permeable.

- CC(C)C[C@@H]1C(=O)N[C@@H](Cc2ccccc2)C(=O)N2CCC[C@@H]2C(=O)N[C@@H](Cc2ccccc2)CC(=O)N[C@H](CC(C)C)C(=O)N(Cc2ccccc2)CC(=O)N2CCC[C@@H]2C(=O)N1C: PAMPA -5.38 (log10 cm/s)
- CCCN1CC(=O)N[C@@H](CC(C)C)C(=O)N[C@H](CC(C)C)C(=O)N2CCC[C@@H]2C(=O)N[C@@H](CC(C)C)C(=O)N[C@@H](Cc2ccccc2)C(=O)N2CCC[C@H]2C1=O: PAMPA -6.48 (log10 cm/s)
- CC(C)C[C@@H]1C(=O)N[C@@H](Cc2ccccc2)C(=O)N(C)[C@@H](C)C(=O)N(C)[C@H](CC(C)C)C(=O)N[C@@H](Cc2ccccc2)CC(=O)N2CCC[C@@H]2C(=O)N1C: PAMPA -5.19 (log10 cm/s)
- CCCN1CC(=O)N[C@H](CC(C)C)C(=O)N(C)[C@@H](CC(C)C)C(=O)N2CCC[C@@H]2C(=O)N(C)[C@@H](CC(C)C)C(=O)N[C@@H](Cc2ccccc2)C(=O)N2CCC[C@@H]2C1=O: PAMPA -5.18 (log10 cm/s)
- CC(C)C[C@@H]1NC(=O)[C@@H](C)NC(=O)[C@H]2CCCN2C(=O)[C@H](Cc2ccccc2)NC(=O)CN(Cc2ccccc2)C(=O)[C@@H]2CCCN2C(=O)CN(Cc2ccccc2)C1=O: PAMPA -5.49 (log10 cm/s)
- CCCN1CC(=O)N(C)[C@@H](CC(C)C)C(=O)N(C)[C@H](CC(C)C)C(=O)N2CCC[C@@H]2C(=O)N(C)[C@H](CC(C)C)C(=O)N[C@@H](Cc2ccccc2)C(=O)N2CCC[C@@H]2C1=O: PAMPA -5.29 (log10 cm/s)
- CC(C)C[C@@H]1NC(=O)C[C@H](Cc2ccccc2)NC(=O)[C@H]2CCCN2C(=O)[C@H](Cc2ccccc2)NC(=O)CN(Cc2ccccc2)C(=O)[C@H]2CCCN2C(=O)[C@@H](CC(C)C)N(C)C1=O: PAMPA -6.04 (log10 cm/s)
- CC(C)C[C@H]1NC(=O)[C@H](C)N(C)C(=O)[C@H]2CCCN2C(=O)[C@H](Cc2ccccc2)NC(=O)CN(Cc2ccccc2)C(=O)[C@@H]2CCCN2C(=O)[C@@H](CC(C)C)NC1=O: PAMPA -6.18 (log10 cm/s)
- CCCN1CC(=O)N[C@H](CC(C)C)C(=O)N(Cc2ccccc2)CC(=O)N2CCC[C@H]2C(=O)N(C)[C@H](CC(C)C)C(=O)N[C@@H](Cc2ccccc2)C(=O)N2CCC[C@H]2C1=O: PAMPA -5.87 (log10 cm/s)
- CC(C)C[C@@H]1NC(=O)[C@H]2CCCN2C(=O)CN(Cc2ccccc2)C(=O)[C@@H](CC(C)C)NC(=O)[C@@H](C)N(C)C(=O)[C@@H]2CCCN2C(=O)[C@H](Cc2ccccc2)NC1=O: PAMPA -5.99 (log10 cm/s)
- CCCN1CC(=O)N[C@H](CC(C)C)C(=O)N(Cc2ccccc2)CC(=O)N2CCC[C@H]2C(=O)N(C)[C@@H](CC(C)C)C(=O)N[C@@H](Cc2ccccc2)C1=O: PAMPA -4.88 (log10 cm/s)
- CC(C)C[C@H]1C(=O)N(Cc2ccccc2)CC(=O)N2CCC[C@@H]2C(=O)N(C)[C@@H](CC(C)C)C(=O)N[C@@H](Cc2ccccc2)C(=O)N2CCC[C@@H]2C(=O)N[C@@H](C)C(=O)N1C: PAMPA -5.60 (log10 cm/s)
- CC(C)C[C@@H]1NC(=O)[C@@H](C)NC(=O)[C@H](Cc2ccccc2)NC(=O)[C@H](CC(C)C)N(C)C(=O)[C@H]2CCCN2C(=O)CN(Cc2ccccc2)C1=O: PAMPA -5.04 (log10 cm/s)
- CC(C)C[C@@H]1NC(=O)[C@@H](C)N(C)C(=O)[C@H](Cc2ccccc2)NC(=O)[C@H](CC(C)C)NC(=O)[C@@H]2CCCN2C(=O)[C@H](CC(C)C)NC1=O: PAMPA -6.26 (log10 cm/s)
- CC(C)C[C@@H]1NC(=O)[C@H]2CCCN2C(=O)CN(Cc2ccccc2)C(=O)[C@@H](CC(C)C)NC(=O)C[C@H](Cc2ccccc2)NC(=O)[C@H]2CCCN2C(=O)[C@H](Cc2ccccc2)NC1=O: PAMPA -6.07 (log10 cm/s)

Extract of 3 entries:

* CC(C)C[C@@H]1NC(=O)[C@@H](C)NC(=O)[C@H](Cc2ccccc2)NC(=O)[C@H](CC(C)C)N(C)C(=O)[C@H]2CCCN2C(=O)CN(Cc2ccccc2)C1=O: PAMPA -5.04 (log10 cm/s)
* CC(C)C[C@@H]1NC(=O)[C@@H](C)NC(=O)[C@H]2CCCN2C(=O)[C@H](Cc2ccccc2)NC(=O)CN(Cc2ccccc2)C(=O)[C@@H]2CCCN2C(=O)CN(Cc2ccccc2)C1=O: PAMPA -5.49 (log10 cm/s)
* CCCN1CC(=O)N[C@@H](CC(C)C)C(=O)N[C@H](CC(C)C)C(=O)N2CCC[C@@H]2C(=O)N[C@@H](CC(C)C)C(=O)N[C@@H](Cc2ccccc2)C(=O)N2CCC[C@H]2C1=O: PAMPA -6.48 (log10 cm/s)

Source: CycPeptMPDB (Li et al. 2023), which took these values from Townsend et al. 2020, doi:10.26434/chemrxiv.13335941.v1.